Columns and labels:
HLA-B*3501 = HLA-B*3501 (Homo sapiens, UniProt P01889, A329T/A93T/A95T/C349S/D201E/D98Y/E176V/E187L/E204Q/E69T/I218V/K202T/L119I/Q94N/R155S/R180L/S121R/S35A/S48A/T118I/V127L/V306I/V36M/Y140S/Y91F); assay: HLA class I binding assay, B*3501
HLA-B*5301 = HLA-B*5301 (Homo sapiens, UniProt P01889, A329T/A93T/A95T/C349S/D201E/D98Y/E176V/E187L/E204Q/E69T/G107R/I218V/K202T/L105A/L119I/N104I/Q94N/R106L/R155S/R180L/S101N/S121R/S35A/S48A/T118I/V127L/V306I/V36M/Y140S/Y91F); assay: HLA class I binding assay, B*5301
HLA-B*5401 = HLA-B*5401 (Homo sapiens, UniProt P01889, A329T/C349S/D138N/D201E/E176V/E187T/E204Q/E69G/I76V/K202T/L119W/R155S/R180L/S121T/S35A/S48A/V127L/V306I/V36M/Y140L); assay: HLA class I binding assay, B*5401
HLA-A*3101 = HLA-A*3101 (Homo sapiens, UniProt P04439, A270S/D185E/E176V/E277Q/F33T/G231S/G80R/H175R/I121M/I218V/I322F/K168Q/L300P/L318F/M331R/P217A/Q94H/R138Q/T323A/T345S/T97I/V358M); assay: HLA class I binding assay, A*3101
HLA-A*3301 = HLA-A*3301 (Homo sapiens, UniProt P04439, A270S/D185E/E176V/E277Q/E87N/F33T/G231S/H175R/I121M/I218V/I322F/K168Q/K210R/L300P/L318F/M331R/P217A/Q86R/Q94H/R138Q/T323A/T345S/T97I/V358M/Y195H); assay: HLA class I binding assay, A*3301
HLA-A*6801 = HLA-A*6801 (Homo sapiens, UniProt P04439, A269V/D185E/E176V/E277Q/E87N/F33Y/G231S/I121M/I166T/I218V/L180W/L300P/L318F/N151K/P208A/P217A/Q86R/R169H/T345S); assay: HLA class I binding assay, A*6801

Chains of the proteins cited; added tags and fusions are not shown. Lines headed by an entry give the natural chain unless they say otherwise; changes in a name come on top.
UniProt P01889: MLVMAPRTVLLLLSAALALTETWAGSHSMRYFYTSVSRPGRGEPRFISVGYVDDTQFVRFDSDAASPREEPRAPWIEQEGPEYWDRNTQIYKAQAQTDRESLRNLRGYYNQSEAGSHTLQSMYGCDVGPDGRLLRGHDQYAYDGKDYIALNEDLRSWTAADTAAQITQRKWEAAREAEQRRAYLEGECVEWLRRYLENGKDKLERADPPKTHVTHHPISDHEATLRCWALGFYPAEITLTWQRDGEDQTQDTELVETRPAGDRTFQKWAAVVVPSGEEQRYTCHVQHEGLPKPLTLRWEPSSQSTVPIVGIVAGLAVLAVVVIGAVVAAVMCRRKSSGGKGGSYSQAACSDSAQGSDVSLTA
UniProt P04439: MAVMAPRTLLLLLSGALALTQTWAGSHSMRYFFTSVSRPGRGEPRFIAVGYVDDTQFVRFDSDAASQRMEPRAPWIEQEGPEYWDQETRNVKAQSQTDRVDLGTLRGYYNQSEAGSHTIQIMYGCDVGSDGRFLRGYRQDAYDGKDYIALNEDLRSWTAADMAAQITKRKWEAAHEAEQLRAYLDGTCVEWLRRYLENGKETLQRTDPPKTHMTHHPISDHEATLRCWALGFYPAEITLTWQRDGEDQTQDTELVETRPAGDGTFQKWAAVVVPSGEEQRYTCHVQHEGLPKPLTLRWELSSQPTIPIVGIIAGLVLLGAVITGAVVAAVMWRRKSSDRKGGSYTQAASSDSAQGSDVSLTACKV

N=C(N)NCCC[C@H](NC(=O)[C@@H]1CCCN1C(=O)[C@@H](N)CO)C(=O)NCC(=O)N[C@@H](CO)C(=O)N[C@@H](CCCNC(=N)N)C(=O)N1CCC[C@H]1C(=O)N[C@@H](CO)C(=O)N[C@@H](Cc1c[nH]c2ccccc12)C(=O)O [Peptide 15.0042]
IC50 (HLA-B*3501): > 30 µM
IC50 (HLA-B*5301): > 30 µM
IC50 (HLA-B*5401): > 30 µM

CC(C)C[C@H](NC(=O)[C@@H](NC(=O)[C@@H](NC(=O)[C@H](Cc1ccccc1)NC(=O)[C@H](CO)NC(=O)[C@H](CS)NC(=O)[C@@H]1CCCN1C(=O)[C@@H](N)CC(C)C)[C@@H](C)O)[C@@H](C)O)C(=O)N1CCC[C@H]1C(=O)N[C@@H](C)C(=O)O [Peptide 16.0187]
IC50 (HLA-B*5301): > 30 µM

CSCC[C@H](NC(=O)[C@H](Cc1ccc(O)cc1)NC(=O)[C@H](C)NC(=O)CNC(=O)[C@H](Cc1ccccc1)NC(=O)CNC(=O)[C@H](CC(C)C)NC(=O)[C@@H](N)[C@@H](C)O)C(=O)N[C@@H](CO)C(=O)N[C@@H](CCCCN)C(=O)O [Peptide 1073.14]
IC50 (HLA-A*3101): > 30 µM

CC(C)C[C@H](NC(=O)[C@@H](N)Cc1c[nH]cn1)C(=O)N[C@@H](Cc1c[nH]cn1)C(=O)N[C@@H](C)C(=O)N1CCC[C@H]1C(=O)N[C@H](C(=O)NCC(=O)N[C@@H](CO)C(=O)NCC(=O)N[C@@H](CCCCN)C(=O)O)[C@@H](C)O [Peptide 1073.16]
IC50 (HLA-A*3101): > 30 µM
IC50 (HLA-A*3301): > 30 µM

CC(C)[C@H](NC(=O)CNC(=O)[C@H](CCCNC(=N)N)NC(=O)[C@@H](NC(=O)[C@H](CS)NC(=O)[C@@H](NC(=O)[C@H](C)N)C(C)C)[C@@H](C)O)C(=O)N[C@@H](C)C(=O)N[C@@H](CCCCN)C(=O)O [Peptide 1090.23]
IC50 (HLA-A*3301): > 30 µM
IC50 (HLA-A*6801): > 30 µM

CC(C)C[C@H](NC(=O)[C@@H]1CCCN1C(=O)[C@H](CS)NC(=O)CNC(=O)[C@H](Cc1c[nH]cn1)NC(=O)[C@@H](NC(=O)[C@@H](NC(=O)[C@@H]1CCCN1C(=O)[C@@H]1CCCN1)C(C)C)C(C)C)C(=O)O [Peptide 1292.17]
IC50 (HLA-B*3501): > 30 µM
IC50 (HLA-B*5301): > 30 µM
IC50 (HLA-B*5401): > 30 µM
